Compound activity (PubChem BioAssay)
PI4K2A block = PI4K2A (human) kinase inhibition; Q9BTU6; AID 1346378; purified PI4K2A, ADP-Glo luminescence, 1 h; active compounds read low; actives 0.13% (n = 420,000); activity change, negative = inhibition, % at 76.9 µM; in the data active = activity change below about -50%; inconclusive = mostly about -30% to -49%;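 also: -100% = wells without enzyme as full effect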
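PI4K2A activity was measured by ADP-Glo luminescence: enzyme (4 ug/mL stock) and phosphatidylinositol (1.2 mM stock) in Tris pH 7.5/MgCl2/EGTA/Triton X-100 buffer were reacted with ATP (300 microM stock) for one hour at ambient temperature.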
GALK inh = inhibitors of human galactokinase; P51570; Purified GALK, Kinase-Glo residual ATP luminescence; Potency, µM (titrated, usually from 57.5 µM), for the others: at the top dose activity change, negative = inhibition, actives largely listed as inhibitors; actives 0.007% (n = 270,000); also: potency is read from the fitted curve at half-maximal effect; % is scaled to controls: 0 for no effect and ±100 for the full control effect
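Compounds were pin-transferred into ATP buffer (35 uM final), then GALK plus galactose (5 nM, 100 uM final) was added. After 1 h at room temperature, Kinase-Glo Plus was added and luminescence read after 10 min.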
S-ASM inh = inhibitors of human secretory acid sphingomyelinase; placental ASM, HMU-PC fluorogenic substrate, 60 min; actives 0.006% (n = 340,000); P17405; AID 504937; Potency, µM (series often up to 57.5 µM), for the others: at the highest dose activity change, negative = inhibition, hits mostly inhibitors; also: potency is read from the fitted curve at half-maximal effect
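HMU-PC0 cleavage (9 uM final) by human placental ASM, 60 min at 37 °C following 10 min compound exposure at RT; stopped at pH 10, fluorescence Ex 386/Em 447 nm.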
miR-21 reporter = miR-21 reporter, rising signal; HeLa miR-21 FLuc reporter, luciferase, 48 h; Potency, µM (highest dose often 38.3 µM), for the others: top-dose reporter change, positive = more light; 340,000 tested, under 10 active; AID 2288; active = well fitted rising curve with a large enough effect; inconclusive = small, poorly fitted or top-dose-only effect; inactive = no such curve, though single readings can be large or run the other way;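 further: % of control where 0% means no effect; miR-21 action dims this reporter so a rising signal means less miR-21 action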
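Using DMEM plus 10% FBS, HeLa miR-21-FLuc cells are incubated with test compounds (final up to about 40uM) for 48 hours; firefly luciferase signal is then imaged following reagent-mediated lysis.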
The depositor's hits bear a star; i = inactive; ? = inconclusive; · = no result; ! = a repeat was not active. Only some compounds are listed: those with a hit (about 0.14% of all), similar ones and a draw of the others. Unless noted, calls follow the shape of the dose curve; as a rule, active = well fitted curve in the direction sought with a large enough effect; inconclusive = small, poorly fitted or top-dose-only effect, or another doubt; inactive = no such curve, though single readings can be large; an effect the other way counts as inactive or inconclusive.

Abbreviations: A = PI4K2A block; B = GALK inh; C = S-ASM inh; D = miR-21 reporter
> CC[C@]12c3[nH]c4cc(-c5ccco5)ccc4c3CCN1C(=O)[C@@H](CC(=O)NCCC1=CCCCC1)C[C@@H]2C(=O)N1CCN(C(=O)c2ccco2)CC1
  A: -53*; B: ·; C: 88%; D: ·
> CC[C@]12c3[nH]c4cc(CCC(=O)N(C)C)ccc4c3CCN1C(=O)[C@@H](CC(=O)NCCC1=CCCCC1)C[C@@H]2C(=O)N1CCN(C(=O)c2ccco2)CC1
  A: 0; B: ·; C: 3%; D: ·
> CCOC(=O)c1ccc(Nc2cnc3ccccc3n2)cc1
  A: -2; B: 0%; C: 67%; D: -67%
> O=C(O)c1ccc(Nc2cnc3ccccc3n2)cc1
  A: -55*; B: 2%; C: 0%; D: -85%
> Oc1cccc2[nH]ccc12
  A: -1; B: ·; C: ·; D: ·
> O=C1Nc2ccccc2CCc2ccccc21
  A: -2; B: ·; C: 2%; D: ·
> O=C1Cc2ccccc2C(=O)N1
  A: -56*; B: ·; C: ·; D: ·
> Cc1ccc(NC2=CC(=O)C(=O)c3ccccc32)cc1
  A: -66*; B: -1%; C: 6%; D: -3%
> NS(=O)(=O)c1ccc(NC2=CC(=O)C(=O)c3ccccc32)cc1
  A: ?; B: ?; C: -1%; D: 1%
> O=C1C=C(Nc2ccc(O)cc2)C(=O)c2ccccc21
  A: -56*; B: 9%; C: -2%; D: 1%
> O=C(O)c1ccc(OCCN2CCCCC2)cc1
  A: -2; B: ·; C: ·; D: ·
> CC(C)NCCCC1(C(N)=O)c2ccccc2-c2ccccc21
  A: -1; B: ·; C: ·; D: ·
> N#C/C(=C\c1ccc(-c2cc(Cl)ccc2Cl)o1)C(=O)Nc1cccc2ncccc12
  A: -53*; B: ·; C: ·; D: ·
> Cc1c(NC(=O)/C(C#N)=C/c2ccc(-c3cc(Cl)ccc3Cl)o2)c(=O)n(-c2ccccc2)n1C
  A: -1; B: 0%; C: -3%; D: -6%
> COc1ccc(OC)c(NC(=O)c2nc(S(=O)(=O)Cc3ccc(F)cc3)ncc2Cl)c1
  A: 5; B: ·; C: ·; D: 12µM*
> O=c1[nH]c(=O)n([C@H]2O[C@H](CO)[C@@H](O)[C@@H]2O)cc1/C=C\Br
  A: 0; B: ·; C: ·; D: ·
> Cc1sccc1Br
  A: 2; B: ·; C: ·; D: ·
> Cc1cc(N2CCN(C)CC2)nc2ccc(NC(=O)c3ccc(C(C)(C)C)cc3)cc12
  A: -4; B: ·; C: ·; D: 6.6µM*
> Cc1cc(N2CCN(C)CC2)nc2ccc(NC(=O)Nc3ccc(Cl)cc3)cc12
  A: 5; B: ·; C: ·; D: -29%
> Cc1cc(Br)ccc1-n1[nH]c(C)c(C=Nc2cccc3nsnc23)c1=O
  A: -54*; B: 3%; C: -22%; D: -1%
> Cc1[nH]c(=O)[nH]c(=O)c1/C=N/NC(=O)[C@@H](N)CC(C)C
  A: -60*; B: -2%; C: 8%; D: -2%
> Nc1ccc(-c2nc3ccc(C(=O)O)cc3s2)cc1
  A: -26; B: 2%; C: i; D: 21%
> Nc1cc2sc(-c3ccc(C(=O)O)cc3)nc2cc1Cl
  A: -76*; B: 6%; C: i; D: -8%
> Nc1ccc(-c2nc3ccc(N)cc3s2)cc1
  A: -16; B: 3%; C: i; D: 6%
> O=C(O)c1ccc2nc(-c3ccccc3)sc2c1
  A: -52*; B: 0%; C: 12%; D: -22%

(listing goes on)
Abbreviations: A = PI4K2A block; B = GALK inh; C = S-ASM inh; D = miR-21 reporter
> O=C1CCCc2c(O)cccc21
  A: -4; B: ·; C: ·; D: ·
> CCCSS/C(CCO)=C(\C)N(C=O)Cc1cnc(C)nc1N
  A: 0; B: ·; C: ·; D: ·
> CCOC(=O)C1CCN(c2ccc(-c3cccs3)nn2)CC1
  A: -69*; B: 19%; C: -4%; D: -37%
> CCOC(=O)C1CCN(c2ccc(Cl)nn2)CC1
  A: 3; B: 0%; C: 4%; D: -4%
> CC1(C)CCC2=C(O1)c1ccccc1C(=O)C2=O
  A: -52*; B: ·; C: ·; D: ·
> Nc1ncnc(Nc2ccc(S(N)(=O)=O)cc2)n1
  A: -65*; B: -2%; C: -1%; D: -18%
> COc1ccccc1N1CCN(CCN(C(=O)C2CCCCC2)c2ccccn2)CC1
  A: -65*!; B: ·; C: -3%; D: ·
> COc1ccccc1N1CCN(CC(C)N(C(=O)C2CCCCC2)c2ccccn2)CC1 (configuration not stated)
  A: 3; B: 1%; C: 3%; D: 3%
> COc1ccc(-c2ccc(NC(=O)c3ccco3)cc2)nn1
  A: -53*; B: ·; C: 5%; D: ·
> COC(=O)c1nn(-c2ccc3c(c2)OCO3)cc1O
  A: -25; B: 6%; C: 5%; D: -26%
> COC(=O)c1nn(-c2ccc3c(c2)CCN3C(C)=O)cc1O
  A: -85*; B: 13%; C: 20%; D: ?
> CCOC(=O)c1c(CSC(=N)N)n(-c2ccc(Br)cc2)c2cc(Br)c(OC(C)=O)cc12
  A: 5; B: ·; C: -13%; D: ?
> CCCCCCCCOC(=O)c1c(CSC(=N)N)n(C)c2cc(Br)c(OC(C)=O)cc12
  A: -3; B: 1%; C: 32µM*; D: 13%
> COc1ccc(Br)cc1CNc1ccc(O)cc1
  A: -50*; B: 0%; C: 2%; D: 6%
> COc1cccc(C=Nc2ccc3c(c2)OCCO3)c1O
  A: -63*; B: 1%; C: 1%; D: -30%
> COc1cccc(C=Nc2ccc(N3CCOCC3)cc2)c1O
  A: -26; B: 2%; C: 1%; D: -10%
> c1c2c(cc3sc(N4CCOCC4)nc13)OCCO2
  A: -51*; B: 11%; C: -3%; D: 5%
> CCCCC(O)/C=C(C)/C=C/C=C/C(=O)N1CCCC1=O (configuration not stated)
  A: -1; B: ·; C: ·; D: ·
> CCOc1ccc(-c2ccc(SC)nn2)cc1
  A: -85*; B: 13%; C: 1%; D: 23%
> CCOc1ccc(-c2ccc(SCC(=O)Nc3nnc(CC)s3)nn2)cc1
  A: -2; B: 6%; C: 0%; D: -44%
> Cc1ccc(C=C2C(=O)c3ccccc3C2=O)s1
  A: -53*; B: 2%; C: -12%; D: -17%
> Cc1cc(C)cc(NC2=C(N)C(=O)c3ccccc3C2=O)c1
  A: -50*; B: ·; C: -8%; D: -50%
> COc1cc(-c2nnc(SCC(=O)Nc3ccc4c(c3)OCCO4)o2)cc(OC)c1OC
  A: -55*; B: 0%; C: -3%; D: 0%
> O=C(O)c1ccc(N/N=C/c2ccncc2)cc1
  A: -17; B: ·; C: -3%; D: -38%
> O=C(O)c1ccc(/C=N\Nc2ccccn2)cc1
  A: -62*; B: ·; C: 4%; D: ·

Part of the list above in a different format.
compound	PI4K2A block	GALK inh	S-ASM inh	miR-21 reporter
Cc1cc(C)cc(NC2=C(N)C(=O)c3ccccc3C2=O)c1	-50*	·	-8%	-50%
COc1cc(-c2nnc(SCC(=O)Nc3ccc4c(c3)OCCO4)o2)cc(OC)c1OC	-55*	0%	-3%	0%
O=C(O)c1ccc(N/N=C/c2ccncc2)cc1	-17	·	-3%	-38%

New compounds follow
The line under a structure holds: PI4K2A block, GALK inh, S-ASM inh, miR-21 reporter
O=C(O)c1ccc(N/N=C/c2ccc3nccnc3c2)cc1
    -55*, 15%, -10%, ?
CC(C)(C)c1nnc(NS(=O)(=O)c2ccc(N)cc2)s1
    -6, ·, ·, ·
CCOc1ccc(NC(=O)Nc2cc(C)ccc2F)cc1
    -64*, 9%, -2%, -69%
CCOc1ccc(NC(=O)Nc2cc(C(C)C)c(O)cc2C)cc1
    0, 4%, -1%, 4%
Cc1ccsc1C=Nc1ccc(O)cc1
    -59*, 0%, -1%, 23%
CCOC(=O)Oc1ccc(CCNC(=O)[C@H](CCSC)NC(C)=O)cc1OC(=O)OCC
    1, ·, ·, ·
CCn1c(CCC(N)=O)nnc1SCC(=O)c1cc(C)n(C2CC2)c1C
    -53*, ·, 5%, ·
Cc1cccc(OC(=O)CN2C(=O)C3C4CCC(C4)C3C2=O)c1C (configuration not stated)
    -85*, 0%, 2%, 0%
CCCCc1cc(=O)oc2cc(C)c(CN3CCCC3)c(O)c12
    -17, -1%, -1%, -4%
CCc1cc(=O)oc2cc(C)c(CN3CCCC(C)C3)c(O)c12 (configuration not stated)
    -51*, 0%, -5%, 11%
CCOc1ccc2nc(NC(=O)c3cccnc3)sc2c1
    -4, 3%, 7%, -35%
CCOc1ccc2nc(NC(=O)c3ccccc3)sc2c1
    -58*, ·, ·, 0%
COc1cc(C=C2CCC/C(=C\c3ccc(O)c(OC)c3)C2=O)ccc1O
    2, ·, ·, ·
CC(=NNC(=S)N1CCCC1)c1ccccn1
    -12, ·, ·, ·
CC(=NNC(=S)N1CCC1)c1ccccn1
    -60*, ·, 2%, ·

miR-21 reporter: hit marks shown above.
The line under a structure holds: PI4K2A block, GALK inh, S-ASM inh, miR-21 reporter
COc1ccc(OC)c(NC(=O)c2nc(S(=O)(=O)Cc3ccc(F)cc3)ncc2Cl)c1
    5, ·, ·, 12µM*
Cc1cc(N2CCN(C)CC2)nc2ccc(NC(=O)c3ccc(C(C)(C)C)cc3)cc12
    -4, ·, ·, 6.6µM*
